By IC50 is commonly meant the concentration that inhibits the measured activity by half. The low end stands for greater potency, the high end for weaker potency.

The chains behind the UniProt entries cited, without tags or fusion partners.
UniProt F1SU04, entry or part of it: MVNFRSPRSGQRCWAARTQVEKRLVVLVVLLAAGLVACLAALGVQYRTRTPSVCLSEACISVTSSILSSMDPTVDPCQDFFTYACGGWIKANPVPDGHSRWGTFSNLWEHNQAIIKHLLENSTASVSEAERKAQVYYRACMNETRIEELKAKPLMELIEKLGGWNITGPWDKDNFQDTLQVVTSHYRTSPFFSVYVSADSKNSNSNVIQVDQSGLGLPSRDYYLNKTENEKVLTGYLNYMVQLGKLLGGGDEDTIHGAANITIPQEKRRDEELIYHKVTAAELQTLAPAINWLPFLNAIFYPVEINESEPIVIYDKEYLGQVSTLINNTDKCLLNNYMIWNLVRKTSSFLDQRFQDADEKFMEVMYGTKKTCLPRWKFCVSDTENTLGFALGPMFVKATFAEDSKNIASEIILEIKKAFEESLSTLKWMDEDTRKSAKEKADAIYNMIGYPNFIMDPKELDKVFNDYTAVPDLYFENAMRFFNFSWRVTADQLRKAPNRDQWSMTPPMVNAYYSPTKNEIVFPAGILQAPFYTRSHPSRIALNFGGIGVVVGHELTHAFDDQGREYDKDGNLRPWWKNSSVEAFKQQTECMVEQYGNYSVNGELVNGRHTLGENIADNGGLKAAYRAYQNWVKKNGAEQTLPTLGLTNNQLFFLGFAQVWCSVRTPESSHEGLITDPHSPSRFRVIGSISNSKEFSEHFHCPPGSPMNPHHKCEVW

The source of these data is patent US6235717A, “Pharmaceutical compounds” (Glaxo Wellcome Inc., priority 1993, dated 2001).

In this experiment the target is endothelin converting enzyme (ECE) (Sus scrofa, UniProt F1SU04). In words: "ECE" assay with porcine aortic "ECE" prep, fluorogenic substrate Suc-Ile-Ile-Trp-MCA. The following applies: pH 7. The experiment is classed as biochemical. The method, then:
IC50 values were determined as follows:
Porcine Aortic "ECE" Prep
Porcine aortas (22-25) were obtained fresh from a local slaughterhouse and delivered in cold PBS on ice. The aortas were cut open, rinsed with cold PBS and the endothelial cell layer scraped into cold PBS using a scalpel. The endothelial cells were pelleted by centrifugation, rinsed once with cold PBS, and repelleted. The pellet was lysed by addition of 10 volumes of 10 mM Tris-HCl, pH 7.0, containing protease inhibitors and DTS, followed by brief sonication and homogenization. The lysate was centrifuged at 100,000 g for 1 hour and the supernatant applied to a MONOQ FPLC anion exchange column equilibrated in 10 mM Tris-HCl, pH 7.0 (buffer A) which was then developed with an increasing gradient of NaCl in buffer A. The active fractions were aliquoted and stored at -70° C.
The ECE assay was performed in 96-well microplates in a total volume of 200μ/well. The assay cocktail contains 100 mM Tris-HCl, pH 7.0, 20 mM CaCl2, 80 μM substrate (Suc-Ile-Ile-Trp-MCA), enzyme and test compounds. […] The assay was incubated overnight at 37° C. and the fluorescence intensity caused by the release of AMC was determined using a fluorescence microplate reader (EX360 nm/EM460 nm). IC50 values for compounds were determined by constructing concentration-effect curves for the inhibition of enzyme activity. […]

Take “N-Benzyloxycarbonyl-L-isoleucyl-L-isoleucine-L-N-[1-[1-hydroxy(1-oxiranyl)methyl-2-(phenyl)ethyllamide [Example 44]”: the IC50 worked out at 10 µM.
